Measured values: patent US20260384438A1, “PYRROLOPYRIMIDINE CARBOXAMIDES” (published 2026)

By UniProt entry, the sequences of proteins in these tests, tags left out. Residues count along the entry.
UniProt P30530, 26-894 limits assumed: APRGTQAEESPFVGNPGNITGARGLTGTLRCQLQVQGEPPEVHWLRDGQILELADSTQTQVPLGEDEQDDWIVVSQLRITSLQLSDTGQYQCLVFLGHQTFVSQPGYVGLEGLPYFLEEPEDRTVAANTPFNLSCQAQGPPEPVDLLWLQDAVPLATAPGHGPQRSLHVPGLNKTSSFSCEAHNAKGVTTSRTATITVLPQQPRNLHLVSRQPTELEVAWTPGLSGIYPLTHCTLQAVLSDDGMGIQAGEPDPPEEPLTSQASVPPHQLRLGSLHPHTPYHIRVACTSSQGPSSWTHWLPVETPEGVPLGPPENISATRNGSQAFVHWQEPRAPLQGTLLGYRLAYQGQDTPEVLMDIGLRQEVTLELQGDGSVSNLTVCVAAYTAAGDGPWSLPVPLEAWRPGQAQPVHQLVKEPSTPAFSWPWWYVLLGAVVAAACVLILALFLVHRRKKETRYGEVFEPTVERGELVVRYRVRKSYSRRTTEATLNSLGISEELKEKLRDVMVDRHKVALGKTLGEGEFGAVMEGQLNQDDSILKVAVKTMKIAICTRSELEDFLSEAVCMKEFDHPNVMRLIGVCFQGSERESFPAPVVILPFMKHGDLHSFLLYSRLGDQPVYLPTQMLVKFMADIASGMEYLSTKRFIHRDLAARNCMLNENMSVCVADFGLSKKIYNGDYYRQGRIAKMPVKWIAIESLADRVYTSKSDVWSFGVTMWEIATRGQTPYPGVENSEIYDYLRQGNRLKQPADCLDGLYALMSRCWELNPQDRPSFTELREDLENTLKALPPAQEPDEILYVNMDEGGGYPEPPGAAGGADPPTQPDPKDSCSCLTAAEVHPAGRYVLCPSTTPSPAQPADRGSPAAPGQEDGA
UniProt O00444, whole entry: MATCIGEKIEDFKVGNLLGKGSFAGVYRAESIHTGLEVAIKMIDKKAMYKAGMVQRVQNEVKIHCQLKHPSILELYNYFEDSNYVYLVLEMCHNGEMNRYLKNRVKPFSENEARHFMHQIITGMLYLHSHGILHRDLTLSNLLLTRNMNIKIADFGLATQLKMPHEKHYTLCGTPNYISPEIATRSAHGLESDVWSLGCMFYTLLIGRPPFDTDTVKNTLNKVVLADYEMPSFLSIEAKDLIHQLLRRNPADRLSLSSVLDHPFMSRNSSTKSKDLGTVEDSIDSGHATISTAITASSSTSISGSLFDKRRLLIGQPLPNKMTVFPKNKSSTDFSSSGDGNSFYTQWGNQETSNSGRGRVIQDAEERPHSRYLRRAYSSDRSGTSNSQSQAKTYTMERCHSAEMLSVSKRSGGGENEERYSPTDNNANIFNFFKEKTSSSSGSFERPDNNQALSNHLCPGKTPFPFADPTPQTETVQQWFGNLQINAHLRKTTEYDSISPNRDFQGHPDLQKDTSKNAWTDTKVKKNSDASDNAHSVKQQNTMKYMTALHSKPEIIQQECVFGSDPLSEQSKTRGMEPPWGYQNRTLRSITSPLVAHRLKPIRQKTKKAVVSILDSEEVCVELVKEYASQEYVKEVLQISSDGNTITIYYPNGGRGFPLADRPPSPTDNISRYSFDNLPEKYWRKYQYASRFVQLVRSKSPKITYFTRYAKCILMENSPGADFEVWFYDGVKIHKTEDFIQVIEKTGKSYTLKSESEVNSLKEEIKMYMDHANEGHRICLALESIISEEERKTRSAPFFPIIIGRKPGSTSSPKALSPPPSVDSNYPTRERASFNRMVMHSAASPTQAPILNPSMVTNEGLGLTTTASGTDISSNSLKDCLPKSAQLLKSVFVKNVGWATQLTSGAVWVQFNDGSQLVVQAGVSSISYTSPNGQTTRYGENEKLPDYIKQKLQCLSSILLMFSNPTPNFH
UniProt P51817, whole entry: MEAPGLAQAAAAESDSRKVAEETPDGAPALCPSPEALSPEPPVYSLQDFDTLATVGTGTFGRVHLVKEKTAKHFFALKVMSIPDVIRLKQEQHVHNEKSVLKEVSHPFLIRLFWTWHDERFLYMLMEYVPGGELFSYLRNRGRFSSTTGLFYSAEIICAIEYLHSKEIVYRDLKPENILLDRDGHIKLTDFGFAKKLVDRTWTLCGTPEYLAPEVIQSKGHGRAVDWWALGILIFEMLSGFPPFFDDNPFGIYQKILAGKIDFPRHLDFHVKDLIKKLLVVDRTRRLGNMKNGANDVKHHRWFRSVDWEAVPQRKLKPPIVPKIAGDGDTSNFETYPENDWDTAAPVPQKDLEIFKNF
UniProt O15530, whole entry: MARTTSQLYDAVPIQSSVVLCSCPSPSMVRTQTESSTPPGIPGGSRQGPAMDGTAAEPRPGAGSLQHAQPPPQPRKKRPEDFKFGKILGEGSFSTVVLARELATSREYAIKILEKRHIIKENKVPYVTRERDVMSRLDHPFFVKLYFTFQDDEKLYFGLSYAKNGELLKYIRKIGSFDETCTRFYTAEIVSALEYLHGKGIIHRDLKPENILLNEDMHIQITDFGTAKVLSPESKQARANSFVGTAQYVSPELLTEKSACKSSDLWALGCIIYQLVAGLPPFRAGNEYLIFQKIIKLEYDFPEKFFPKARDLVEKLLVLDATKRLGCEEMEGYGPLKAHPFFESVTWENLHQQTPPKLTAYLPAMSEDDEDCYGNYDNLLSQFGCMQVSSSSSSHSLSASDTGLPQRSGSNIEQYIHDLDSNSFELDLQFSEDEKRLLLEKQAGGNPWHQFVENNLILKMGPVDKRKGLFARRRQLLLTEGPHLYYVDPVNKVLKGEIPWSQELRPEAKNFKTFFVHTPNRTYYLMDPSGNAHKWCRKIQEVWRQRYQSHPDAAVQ
UniProt P00568, whole entry: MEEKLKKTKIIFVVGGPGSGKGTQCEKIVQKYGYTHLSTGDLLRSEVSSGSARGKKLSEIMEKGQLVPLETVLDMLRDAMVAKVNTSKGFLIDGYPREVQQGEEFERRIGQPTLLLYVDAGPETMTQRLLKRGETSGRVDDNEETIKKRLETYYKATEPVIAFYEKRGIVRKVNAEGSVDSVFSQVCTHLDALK
UniProt Q13464, whole entry: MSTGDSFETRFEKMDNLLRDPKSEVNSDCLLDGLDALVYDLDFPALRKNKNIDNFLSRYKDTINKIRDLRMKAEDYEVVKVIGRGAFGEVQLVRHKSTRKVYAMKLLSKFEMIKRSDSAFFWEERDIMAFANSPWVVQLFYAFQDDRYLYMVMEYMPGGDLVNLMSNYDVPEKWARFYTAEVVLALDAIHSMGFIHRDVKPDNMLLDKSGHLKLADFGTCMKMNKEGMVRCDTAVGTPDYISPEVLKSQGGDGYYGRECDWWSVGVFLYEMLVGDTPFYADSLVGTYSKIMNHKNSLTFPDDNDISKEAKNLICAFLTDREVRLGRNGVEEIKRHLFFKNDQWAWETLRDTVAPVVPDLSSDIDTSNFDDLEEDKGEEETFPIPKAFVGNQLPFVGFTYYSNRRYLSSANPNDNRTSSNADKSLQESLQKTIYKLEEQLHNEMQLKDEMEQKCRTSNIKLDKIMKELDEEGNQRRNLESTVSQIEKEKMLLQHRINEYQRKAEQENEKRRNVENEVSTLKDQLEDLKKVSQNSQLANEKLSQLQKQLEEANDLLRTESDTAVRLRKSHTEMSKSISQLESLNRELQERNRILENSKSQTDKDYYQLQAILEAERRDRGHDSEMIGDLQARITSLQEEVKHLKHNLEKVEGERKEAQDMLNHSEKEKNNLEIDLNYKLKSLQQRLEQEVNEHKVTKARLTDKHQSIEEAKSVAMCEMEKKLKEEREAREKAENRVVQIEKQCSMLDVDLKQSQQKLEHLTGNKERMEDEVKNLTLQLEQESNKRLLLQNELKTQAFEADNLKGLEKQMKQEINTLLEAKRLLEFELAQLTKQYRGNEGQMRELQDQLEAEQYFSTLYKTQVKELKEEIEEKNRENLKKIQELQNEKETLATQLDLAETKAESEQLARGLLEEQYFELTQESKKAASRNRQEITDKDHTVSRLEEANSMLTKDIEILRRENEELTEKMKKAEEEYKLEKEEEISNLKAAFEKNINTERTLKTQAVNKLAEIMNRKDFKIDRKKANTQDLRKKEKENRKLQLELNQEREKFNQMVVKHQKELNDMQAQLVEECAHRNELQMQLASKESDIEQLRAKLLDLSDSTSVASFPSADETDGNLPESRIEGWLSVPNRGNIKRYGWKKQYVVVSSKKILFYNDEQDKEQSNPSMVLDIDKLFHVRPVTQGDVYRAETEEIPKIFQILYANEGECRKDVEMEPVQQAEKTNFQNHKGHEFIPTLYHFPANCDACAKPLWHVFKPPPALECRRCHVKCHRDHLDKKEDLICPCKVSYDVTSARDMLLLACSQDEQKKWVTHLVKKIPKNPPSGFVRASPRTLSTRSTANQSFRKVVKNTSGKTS
UniProt Q8NFU5, whole entry: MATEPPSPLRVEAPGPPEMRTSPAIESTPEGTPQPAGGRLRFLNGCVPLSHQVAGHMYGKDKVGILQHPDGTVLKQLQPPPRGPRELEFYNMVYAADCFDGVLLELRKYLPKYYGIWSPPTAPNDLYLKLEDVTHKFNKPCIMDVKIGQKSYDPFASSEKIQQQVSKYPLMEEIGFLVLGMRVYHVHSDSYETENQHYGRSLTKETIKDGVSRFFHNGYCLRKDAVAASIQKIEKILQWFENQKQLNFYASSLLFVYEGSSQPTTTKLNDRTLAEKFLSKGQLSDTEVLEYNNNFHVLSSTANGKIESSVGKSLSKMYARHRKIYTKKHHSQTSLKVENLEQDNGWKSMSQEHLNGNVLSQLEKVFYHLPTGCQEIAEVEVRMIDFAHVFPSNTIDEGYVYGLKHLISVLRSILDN
UniProt Q8IW41, whole entry: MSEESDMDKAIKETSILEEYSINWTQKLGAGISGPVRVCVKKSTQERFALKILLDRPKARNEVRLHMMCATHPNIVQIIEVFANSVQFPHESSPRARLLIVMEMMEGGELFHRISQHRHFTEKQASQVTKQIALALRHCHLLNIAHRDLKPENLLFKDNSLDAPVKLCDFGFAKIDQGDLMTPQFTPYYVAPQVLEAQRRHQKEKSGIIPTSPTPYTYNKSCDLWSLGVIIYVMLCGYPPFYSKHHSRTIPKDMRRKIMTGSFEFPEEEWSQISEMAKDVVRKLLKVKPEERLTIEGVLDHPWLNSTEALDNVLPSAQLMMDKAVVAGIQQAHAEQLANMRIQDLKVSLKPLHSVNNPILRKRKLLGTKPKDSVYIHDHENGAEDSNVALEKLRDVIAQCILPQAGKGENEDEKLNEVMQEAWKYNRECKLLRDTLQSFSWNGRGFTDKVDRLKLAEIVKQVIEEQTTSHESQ
UniProt Q7RTN6, whole entry: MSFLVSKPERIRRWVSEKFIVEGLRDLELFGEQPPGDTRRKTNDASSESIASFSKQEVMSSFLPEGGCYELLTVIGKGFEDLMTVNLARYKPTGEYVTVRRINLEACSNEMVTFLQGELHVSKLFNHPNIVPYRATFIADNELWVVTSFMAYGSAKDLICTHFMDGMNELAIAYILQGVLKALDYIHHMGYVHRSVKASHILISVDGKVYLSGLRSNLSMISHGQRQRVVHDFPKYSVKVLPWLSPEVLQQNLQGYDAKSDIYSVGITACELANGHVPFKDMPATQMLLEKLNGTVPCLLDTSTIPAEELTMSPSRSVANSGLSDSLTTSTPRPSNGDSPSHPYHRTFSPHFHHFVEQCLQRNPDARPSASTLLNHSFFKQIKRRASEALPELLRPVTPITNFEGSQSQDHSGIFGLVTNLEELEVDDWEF
UniProt P48729, whole entry: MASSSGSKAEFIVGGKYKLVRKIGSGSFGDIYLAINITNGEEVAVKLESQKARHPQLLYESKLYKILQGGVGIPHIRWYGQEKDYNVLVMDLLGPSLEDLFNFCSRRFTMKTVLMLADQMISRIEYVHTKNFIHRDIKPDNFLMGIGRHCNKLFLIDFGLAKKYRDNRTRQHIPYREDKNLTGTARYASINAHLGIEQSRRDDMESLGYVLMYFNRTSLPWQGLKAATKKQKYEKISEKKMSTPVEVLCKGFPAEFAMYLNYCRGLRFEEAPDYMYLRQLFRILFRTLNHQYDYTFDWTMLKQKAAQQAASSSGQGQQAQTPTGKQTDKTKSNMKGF
UniProt P53671, whole entry: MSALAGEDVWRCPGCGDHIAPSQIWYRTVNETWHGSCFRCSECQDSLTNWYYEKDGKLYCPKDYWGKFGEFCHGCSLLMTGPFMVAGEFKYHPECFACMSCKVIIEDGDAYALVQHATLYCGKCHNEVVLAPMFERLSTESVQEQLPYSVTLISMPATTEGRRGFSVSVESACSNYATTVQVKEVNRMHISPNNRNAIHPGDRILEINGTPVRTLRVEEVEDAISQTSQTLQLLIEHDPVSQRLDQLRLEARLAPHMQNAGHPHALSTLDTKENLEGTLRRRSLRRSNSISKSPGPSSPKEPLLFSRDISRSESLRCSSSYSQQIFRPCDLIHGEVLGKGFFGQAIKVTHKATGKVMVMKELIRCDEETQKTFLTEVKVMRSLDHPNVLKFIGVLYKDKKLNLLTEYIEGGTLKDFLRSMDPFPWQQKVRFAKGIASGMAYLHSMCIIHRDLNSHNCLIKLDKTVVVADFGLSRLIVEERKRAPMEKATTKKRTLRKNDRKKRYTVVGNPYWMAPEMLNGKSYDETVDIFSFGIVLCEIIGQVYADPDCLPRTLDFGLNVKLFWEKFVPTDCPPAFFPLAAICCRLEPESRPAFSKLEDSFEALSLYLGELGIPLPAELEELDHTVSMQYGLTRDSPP

Tests used:
Experiment in all cases: KAT chemical proteomics
NEK2 = NEK2 (Homo sapiens, UniProt P51955)
PI4KA = PI4KA (Homo sapiens, UniProt P42356)
EPHB3 = EPHB3 (Homo sapiens, UniProt P54753)
AXL = AXL (Homo sapiens, UniProt P30530)
EGFR = EGFR (Homo sapiens, UniProt P00533)
CAMK2D = CAMK2D (Homo sapiens, UniProt Q13557)
STK25 = STK25 (Homo sapiens, UniProt O00506)
PAK4 = PAK4 (Homo sapiens, UniProt O96013)
MAPK1 = MAPK1 (Homo sapiens, UniProt P28482)
SYK = SYK (Homo sapiens, UniProt P43405)
ADCK1 = ADCK1 (Homo sapiens, UniProt Q86TW2)
JAK1 = JAK1 (Homo sapiens, UniProt P23458)
HIPK1 = HIPK1 (Homo sapiens, UniProt Q86Z02)
AurKA = AurKA (Homo sapiens, UniProt O14965)
ADCK5 = ADCK5 (Homo sapiens, UniProt Q3MIX3)
CPNE3 = CPNE3 (Homo sapiens, UniProt O75131)
PAK2 = PAK2 (Homo sapiens, UniProt Q13177)
MNAT1 = tested on: MNAT1
PPP4C = tested on: PPP4C
PLK4 = PLK4 (Homo sapiens, UniProt O00444)
PRKX = PRKX (Homo sapiens, UniProt P51817)
PDPK1 = PDPK1 (Homo sapiens, UniProt O15530)
CSNK1G2 = CSNK1G2 (Homo sapiens, UniProt P78368)
MPP1 = tested on: MPP1
RIPK1 = RIPK1 (Homo sapiens, UniProt Q13546)
JAK3 = JAK3 (Homo sapiens, UniProt P52333)
PIK3C2B = PIK3C2B (Homo sapiens, UniProt O00750)
AK1 = AK1 (Homo sapiens, UniProt P00568)
ROCK1 = ROCK1 (Homo sapiens, UniProt Q13464)
TK1 = TK1 (Homo sapiens, UniProt P04183)
MARK3 = MARK3 (Homo sapiens, UniProt P27448)
IPMK = IPMK (Homo sapiens, UniProt Q8NFU5)
STK3 = STK3 (Homo sapiens, UniProt Q13188)
GSK3A = GSK3A (Homo sapiens, UniProt P49840)
PKN1 = PKN1 (Homo sapiens, UniProt Q16512)
DAPK1 = DAPK1 (Homo sapiens, UniProt P53355)
MAPKAPK5 = MAPKAPK5 (Homo sapiens, UniProt Q8IW41)
STRADA = STRADA (Homo sapiens, UniProt Q7RTN6)
PHKG2 = PHKG2 (Homo sapiens, UniProt P15735)
CSNK1A1 = CSNK1A1 (Homo sapiens, UniProt P48729)
LIMK2 = LIMK2 (Homo sapiens, UniProt P53671)

Cc1nc(C(F)(F)F)c2c(C(N)=O)c(N)n(-c3c(C)ccc(O)c3C)c2n1 (single isomer, unassigned)
RB50 (NEK2): >50 µM
RB50 (PI4KA): >50 µM
RB50 (EPHB3): 114 nM
RB50 (AXL): >50 µM
RB50 (EGFR): >50 µM
RB50 (CAMK2D): >50 µM
RB50 (STK25): >50 µM
RB50 (PAK4): >50 µM
RB50 (MAPK1): >50 µM
RB50 (SYK): >50 µM
RB50 (ADCK1): >50 µM
RB50 (JAK1): >50 µM
RB50 (HIPK1): >50 µM
RB50 (AurKA): >50 µM
RB50 (ADCK5): >50 µM
RB50 (CPNE3): >50 µM
RB50 (PAK2): >50 µM
RB50 (MNAT1): >50 µM
RB50 (PPP4C): >50 µM
RB50 (PLK4): >50 µM
RB50 (PRKX): >50 µM
RB50 (PDPK1): >50 µM
RB50 (CSNK1G2): >50 µM
RB50 (MPP1): >50 µM
RB50 (RIPK1): >50 µM
RB50 (JAK3): >50 µM
RB50 (PIK3C2B): >50 µM
RB50 (AK1): >50 µM
RB50 (ROCK1): >50 µM
RB50 (TK1): >50 µM
RB50 (MARK3): >50 µM
RB50 (IPMK): >50 µM
RB50 (STK3): >50 µM
RB50 (GSK3A): >50 µM
RB50 (PKN1): >50 µM
RB50 (DAPK1): >50 µM
RB50 (MAPKAPK5): >50 µM
RB50 (STRADA): >50 µM
RB50 (PHKG2): >50 µM
RB50 (CSNK1A1): >50 µM
RB50 (LIMK2): >50 µM
